## Measured affinities in a library of Ab-95 light chain variants

Reference: Engelhart et al. 2022, doi:10.1038/s41597-022-01779-4. File: FLAb, binding data.

The target is the same throughout: PDVDLGDISGINAS, from the HR2 region of SARS-CoV-2 spike.

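The parent was found by panning a naive human phage display library on the peptide. Library AAYL52 holds single substitutions and randomly drawn double and triple substitutions in the CDRs. In AlphaSeq, yeast of one mating type display the scFv and yeast of the other type display the target. Binding brings cells together so that they mate, and sequencing counts the barcode pairs among the diploids. A regression on co-assayed BCL2-family reference pairs converts the normalised counts of each replicate to an apparent Kd. There are three technical replicates.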

The variants keep the heavy chain, the linker and the frameworks of Ab-95 (scFv order VH, a (GGGGS)3 linker, VL).
VH: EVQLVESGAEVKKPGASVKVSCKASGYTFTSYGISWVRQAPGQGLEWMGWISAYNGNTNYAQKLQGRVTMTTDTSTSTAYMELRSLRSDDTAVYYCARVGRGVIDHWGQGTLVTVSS
VL: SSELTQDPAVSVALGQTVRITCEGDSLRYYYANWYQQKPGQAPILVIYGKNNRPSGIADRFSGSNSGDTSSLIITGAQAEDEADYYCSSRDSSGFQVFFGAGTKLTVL

The parent's light chain CDRs are EGDSLRYYYAN, GKNNRPS, SSRDSSGFQVF; each variant's own CDRs replace them letter for letter. All variants listed here change D91 of the VL, counted from its first residue. The Kd shown is the geometric mean over detected replicates; a lower Kd is a better binder. An entry "nd" has no value in the source: the pair was not observed among the diploids in any replicate. This suggests poor binding but is not conclusive. In this assay the parent's reference entry averaged 200 nM; its copy inside this library read 180 nM.

CDR-L1,CDR-L2,CDR-L3,apparent Kd,seen in,control signals
FGDSLRYYYAN,GLNNRPS,SSRMSSGFQVF,5.3 µM,2/3,2/9
EGDSLRYYYAN,GKNNRPS,SSRYSSKFQYF,140 nM,3/3,2/9
EGDSLRYYYAN,GGNNRPS,SIRKSSGFQVF,210 nM,3/3,0/9
EGDSLRYYGAN,GKNNRWS,SSRISSGFQVF,480 nM,3/3,4/9
ETDSLRYYYAN,GKNNRPS,SSRISSGFQYF,nd,0/3,0/9
EGDSLRYYYAN,GKRNRPE,SSRMSSGFQVF,96 µM,2/3,2/9
EGDSLRYYDAN,GKNNRPK,SSRESSGFQVF,1.9 µM,3/3,1/9
EHDSLRPYYAN,GKNNRPS,SSRGSSGFQVF,950 nM,3/3,2/9
EGDSLRWYEAN,GKNNRPS,SSRFSSGFQVF,1.2 µM,1/3,2/9
EGDDLRYYYAN,GKNNRPS,SSRGSSGFQVY,510 nM,3/3,1/9
ENDSLRYYYAN,GKNNRPF,SSRGSSGFQVF,nd,0/3,2/9
CGDSLRYYYAN,GKNNRPS,SSRFSSGFQVF,nd,0/3,2/9
EGDSLRYYYAN,WNNNRPS,SSRWSSGFQVF,nd,0/3,1/9
EGDSDRYYYAN,GKNNMPS,SSRQSSGFQVF,110 µM,3/3,3/9
EGDSLRYYYAN,GWNNRPS,SSRHSSGFQVF,10 µM,3/3,0/9
EGDSLRYYYAN,IKNNRPF,SSRYSSGFQVF,13 µM,2/3,5/9
EGDSLRYYTAN,GKNNRPS,SSRVSSGFQVV,4.7 µM,3/3,1/9
EGDCLRYYYAN,GKNNRPS,SSRESSGFQVC,12 µM,2/3,3/9
EGDSLRYYYAN,DKNNRPS,SSRISSGFQQF,240 nM,3/3,7/9
EGDSLRYYYAN,GKNNRPS,SPGTSSGFQVF,3.6 µM,3/3,3/9
EGDSLRYYYAN,GKNNIPS,SSESSSGFQVF,1.2 µM,3/3,2/9
EGDSLRYYYAN,HKNQRPS,SSRESSGFQVF,3.4 µM,3/3,5/9
EGDSLRYYVAN,GKWNRPS,SSRESSGFQVF,nd,0/3,0/9
EGDSLRYYYAM,HKNNRPS,SSRNSSGFQVF,110 µM,1/3,0/9
EGDSLRYYYAC,GKNGRPS,SSRSSSGFQVF,12 µM,2/3,4/9
EGDSLRYYYPM,GKNNRPS,SSRKSSGFQVF,3.1 µM,3/3,3/9
EGKSLRYYYAN,GKNNRPS,SSRKSSGFQVF,1.3 µM,3/3,6/9
EGDSLRYYPAN,GKNNRPS,SSRASSCFQVF,130 nM,3/3,6/9
EGDSGRYYYAN,GKNNRPS,SSRFSSGFQWF,7.5 µM,2/3,5/9
EGDSLRYYGAN,GKNNRPS,SSRASSGFQVE,1.1 µM,3/3,3/9
EGDSLRYYYAN,GKNNRNS,SSRGSSGFQVT,3.3 µM,2/3,3/9
EGDSLRYYYAN,GKNNRPS,QSRCSSGFQVS,2.9 µM,1/3,3/9
EGDSLRYGYAN,GKNNRPS,SSRTSSGFQVF,12 nM,3/3,5/9
EGDWDRYYYAN,GKNNRPS,SSRWSSGFQVF,2.5 µM,3/3,1/9
EGDSLRYYYAN,GKNNRPS,SSRGSHGFQYF,190 nM,3/3,1/9
EGDNLRYYYAN,GKNNRPS,SSRASSGFVVF,11 µM,1/3,0/9
EGDSLRVYYAP,GKNNRPS,SSRSSSGFQVF,490 nM,3/3,3/9
EGDSLRYYYDN,GKNNRPS,SSRNSSGVQVF,nd,0/3,0/9
EGDSLRYYYAN,GKDNRPS,SSRNSSGFQVF,140 nM,3/3,3/9
EGDSLRYYYAA,GKNNRPS,SVRTSSGFQVF,16 µM,1/3,3/9
EGQSLRYYYAN,GKNNRPS,SSRTSSFFQVF,260 nM,3/3,5/9
EGDSLMYYYAN,GKVNRPS,SSRLSSGFQVF,7.6 µM,1/3,3/9
EGDSLRYYYAN,MKNNRPS,SSRRSSGFQCF,4.1 µM,3/3,6/9
EGDSLAYLYAN,GKNNRPS,SSRESSGFQVF,2.8 µM,3/3,1/9
EGDSLRYYIAN,GKNNRPS,SSRVSKGFQVF,1.1 µM,2/3,3/9
EMDSLRYYYAN,GKNNRPS,SSRKSSGFQYF,36 µM,2/3,4/9
EGDSLRYYYAN,GKNNRPS,SSRSSSRFQVF,20 µM,1/3,5/9
EGDSLRYYYAN,GKNNRPS,SSRPWSGFQVF,nd,0/3,2/9
EGDSLRYYYTN,GKNNRPS,SSRSSSGFSVF,79 nM,3/3,3/9
EGDSLRYYYAN,GKNRRPS,SSRTSPGFQVF,19 µM,2/3,7/9
EGDSLRYYYAD,GKTNRPS,SSRTSSGFQVF,7.1 µM,1/3,7/9
EGDSLRYYYTN,GKNNRDS,SSRYSSGFQVF,2.6 µM,3/3,1/9
EGDSLRYYGAN,GKNNRPS,SSRTSSGFQVF,320 nM,3/3,5/9
EGDSLRGYYAN,GKNNRPS,SSRGSSGDQVF,25 nM,3/3,3/9
EGDSLRYYYAN,GKNNRPS,CSRQSSGFQVF,4.5 µM,3/3,4/9
EGDSLRYYYAN,GKNNRRS,SPRVSSGFQVF,27 µM,3/3,5/9
EGDSLRYYYAN,GKFNRPS,SSRTSSVFQVF,1.7 µM,2/3,2/9
EGDSLRYYYAN,GKNNRPS,SFRRSSGFQVF,450 nM,3/3,2/9
EGDSLRYYYAN,WKNNRPS,SSRRSSGFQVI,48 µM,2/3,5/9
EGDMLRYYYAN,CKNNRPS,SSRCSSGFQVF,17 µM,1/3,3/9
EGDSLRYYYAN,GKNNRPS,SSRQSSGPQWF,24 µM,2/3,2/9
EGDSLRYYLAN,GKNNRPM,SSRKSSGFQVF,660 nM,3/3,0/9
EGDRLRYYYFN,GKNNRPS,SSRTSSGFQVF,7.7 µM,2/3,2/9
EGDSLRYYYSN,GKNNRPS,SSMRSSGFQVF,nd,0/3,1/9
EGDSLRYYISN,GKNNRPS,SSRGSSGFQVF,370 nM,3/3,6/9

9 of these entries, quoted again:

CDR-L1,CDR-L2,CDR-L3,apparent Kd,seen in,control signals
EGDSLRYYYAN,GKNNRPS,SSRYSSKFQYF,140 nM,3/3,2/9
EGDSLRYYYAN,GKNNRRS,SPRVSSGFQVF,27 µM,3/3,5/9
EGDMLRYYYAN,CKNNRPS,SSRCSSGFQVF,17 µM,1/3,3/9
EGDSLRYYVAN,GKWNRPS,SSRESSGFQVF,nd,0/3,0/9
EGDSLAYLYAN,GKNNRPS,SSRESSGFQVF,2.8 µM,3/3,1/9
EGDSLRYYIAN,GKNNRPS,SSRVSKGFQVF,1.1 µM,2/3,3/9
EGDSLRYYDAN,GKNNRPK,SSRESSGFQVF,1.9 µM,3/3,1/9
EGDSLRGYYAN,GKNNRPS,SSRGSSGDQVF,25 nM,3/3,3/9
EGDSLRYYISN,GKNNRPS,SSRGSSGFQVF,370 nM,3/3,6/9

Background: pairings of library AAYL52 with three empty control strains gave a value in 28% of cases (median 8.2 µM, 5th percentile 800 nM). Values in that range, when seen in few replicates, are hard to tell from nonspecific mating. The control count says in how many pairings with the empty strains this scFv gave a signal.